# Data: PubChem BioAssay AID875 (National Center for Advancing Translational Sciences (NCATS), 2007)
# Amino acid sequences for entries named in this document (tags omitted).
# UniProt P38398, whole entry, looked up: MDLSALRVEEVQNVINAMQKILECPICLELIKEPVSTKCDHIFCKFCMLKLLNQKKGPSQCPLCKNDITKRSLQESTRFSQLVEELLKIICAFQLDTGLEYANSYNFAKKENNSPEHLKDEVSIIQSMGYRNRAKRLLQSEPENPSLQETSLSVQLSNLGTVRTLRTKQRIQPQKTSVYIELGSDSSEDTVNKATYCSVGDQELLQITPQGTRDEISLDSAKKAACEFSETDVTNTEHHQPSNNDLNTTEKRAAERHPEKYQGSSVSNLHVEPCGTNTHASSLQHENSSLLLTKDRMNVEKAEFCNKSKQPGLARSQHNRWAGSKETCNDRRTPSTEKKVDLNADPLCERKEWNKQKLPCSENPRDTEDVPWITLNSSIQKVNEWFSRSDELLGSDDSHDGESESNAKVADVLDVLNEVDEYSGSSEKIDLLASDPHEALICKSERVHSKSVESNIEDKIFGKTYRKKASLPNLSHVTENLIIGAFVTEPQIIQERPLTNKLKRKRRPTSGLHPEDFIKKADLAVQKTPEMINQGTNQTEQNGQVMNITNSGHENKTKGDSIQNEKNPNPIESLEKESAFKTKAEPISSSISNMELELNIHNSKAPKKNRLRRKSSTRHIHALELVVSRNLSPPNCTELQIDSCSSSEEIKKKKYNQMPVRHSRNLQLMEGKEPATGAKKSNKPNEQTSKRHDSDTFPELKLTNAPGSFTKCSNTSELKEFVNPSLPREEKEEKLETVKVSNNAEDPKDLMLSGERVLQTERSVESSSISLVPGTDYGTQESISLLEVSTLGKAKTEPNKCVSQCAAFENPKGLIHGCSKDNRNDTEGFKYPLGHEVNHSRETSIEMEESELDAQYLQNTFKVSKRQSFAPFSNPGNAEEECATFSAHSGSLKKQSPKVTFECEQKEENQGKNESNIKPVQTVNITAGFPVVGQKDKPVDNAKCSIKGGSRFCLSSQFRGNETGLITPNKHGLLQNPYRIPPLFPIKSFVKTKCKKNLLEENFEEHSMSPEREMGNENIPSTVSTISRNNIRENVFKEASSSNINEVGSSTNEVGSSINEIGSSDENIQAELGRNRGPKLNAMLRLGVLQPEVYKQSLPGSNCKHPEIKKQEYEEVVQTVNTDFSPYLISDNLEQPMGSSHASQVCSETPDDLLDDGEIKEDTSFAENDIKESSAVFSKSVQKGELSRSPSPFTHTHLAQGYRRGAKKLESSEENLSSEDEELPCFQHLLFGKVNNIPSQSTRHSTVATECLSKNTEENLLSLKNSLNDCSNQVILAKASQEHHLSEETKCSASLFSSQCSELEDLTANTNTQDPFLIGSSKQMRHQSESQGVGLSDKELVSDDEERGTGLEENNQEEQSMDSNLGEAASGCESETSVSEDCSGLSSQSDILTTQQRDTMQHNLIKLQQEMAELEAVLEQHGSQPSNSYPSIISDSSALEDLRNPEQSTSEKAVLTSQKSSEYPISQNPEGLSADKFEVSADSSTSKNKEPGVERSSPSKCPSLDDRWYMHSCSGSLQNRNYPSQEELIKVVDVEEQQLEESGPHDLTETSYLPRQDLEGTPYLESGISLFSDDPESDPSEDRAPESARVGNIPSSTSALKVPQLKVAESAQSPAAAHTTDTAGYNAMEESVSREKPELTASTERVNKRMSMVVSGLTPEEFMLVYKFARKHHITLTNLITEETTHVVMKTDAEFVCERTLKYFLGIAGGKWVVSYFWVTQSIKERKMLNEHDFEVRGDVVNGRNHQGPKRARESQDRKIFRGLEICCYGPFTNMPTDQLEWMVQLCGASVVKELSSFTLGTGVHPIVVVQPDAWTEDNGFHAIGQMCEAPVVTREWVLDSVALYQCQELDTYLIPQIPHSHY
# “And” between values parts separate entries of the source, which are not always exact repeats. Equal values may be shown once. The entries are a selection whose mix differs from that of the whole data set. The source made the active and inactive calls. The call rests on the fitted dose curve; in most records, active means well fitted inhibition curve with a large enough effect; inconclusive means small, poorly fitted or top-dose-only effect; inactive means no such curve, though single readings can be large or run the other way.
# Target: Breast cancer type 1 susceptibility protein (Homo sapiens) (UniProt P38398)
# Assay: qHTS Assay for Inhibitors of BRCT-Phosphoprotein Interaction (Green Fluorophore);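 further: plate controls were peptide without protein for full effect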
# Conditions: BRCA1 BRCT-phosphopeptide binding, green fluorescence polarization
# Protocol: NIH Molecular Libraries Screening Centers Network [MLSCN]
# NIH Chemical Genomics Center [NCGC]
# PI Name: Natarajan, Amarnath; University of Texas
# A complex of BRCT (C-terminal portion of BRCA1, MW ~35 kDa, His-tagged) and fluorescently labeled pBACH1 phosphorylated 10 aa peptide fragment of BACH1, a helicase implicated in DNA repair, is incubated with library members. Inhibitors of BRCT-pBACH1 binding are detected by a decrease in the fluorescence polarization (FP) of the fluorophore. In order to minimize the effect of fluorescence artifacts and to increase the overall robustness of the screen, the compound library members were incubated in separate reactions with fluorescein labeled probe-protein complexes. Protein and labeled probes were supplied by Dr. Amarnath Natarajan, Department of Pharmacology and Toxicology, University of Texas Medical Branch Galveston, TX.
# Assay Buffer: 16mM Na2HPO4, 4 mM NaH2PO4, 150 mM NaCl, 1 mM EDTA, 1 mM DTT, 0.02% NaN3, and 0.01% Tween 20 at pH 7.3.
# 100 nM labeled decapeptide/250 nM protein in columns 1, 2, 5 - 48. Titration of unlabeled decapeptide control (from 10 mM, then 1:2 dilution in duplicate) pin-transferred to column 2, rows 1 to 16. Column 1 is neutral.
# Three uL of reagents were dispensed to 1536-well Greiner black solid-bottom plates. Compounds and controls (23 nL) were transferred
# via Kalypsys PinTool. The plates were incubated for 12 min at room temperature, and then read on ViewLux (Perkin-Elmer) High throughput CCD imager using FITC for the fluorescein-labeled decapeptide probe polarization filter sets. During dispense, reagent bottles were kept submerged into 4 deg C water bath and all liquid lines were covered with aluminum foil to minimize probe and protein degradation. All screening operations were performed on a Kalypsys robotic system (Kalypsys, Inc., San Diego, CA) containing one RX-130 and two RX-90 anthropomorphic robotic arms. The timing and order of assay plates passing through the screening system were adjusted such that each compound library plate was assayed against the fluorescein- and rhodamine-labeled assay systems at immediately adjacent time points.
# [1] = at 76.9 µM (top of the series) unless noted
smiles,measurement,setting,value
CCc1nc2c(n1)c1c(non1O)c1c2no[n+]1[O-],"activity change, negative = inhibition",[1],inactive: 0.245%
O=C(CO)Nc1ccc([As](=O)(O)O)cc1,"activity change, negative = inhibition",[1],inactive: -0.537% [at 15.4 µM]
CN(C(=O)Cc1ccccc1)[C@@H]1CC[C@@]2(CCCO2)C[C@H]1N1CCCC1,"activity change, negative = inhibition",[1],inactive: -4.94%
CN(C(=O)Cc1ccc(Cl)c(Cl)c1)[C@H]1CCCC[C@@H]1N1CCCC1,"activity change, negative = inhibition",[1],inactive: -2.97% and inactive: -1.12% and inactive: -1.88%
C(Cc1nn[nH]n1)c1nn[nH]n1,"activity change, negative = inhibition",[1],inactive: 1.07% [at 15.4 µM]
[N-]=[N+]=NCC(O)CN=[N+]=[N-] (configuration not stated),"activity change, negative = inhibition",[1],inactive: 3.35% [at 15.4 µM]
O=[N+]([O-])c1ccc(C[As](=O)(O)O)cc1,"activity change, negative = inhibition",[1],inactive: -1.42% [at 15.4 µM]
NCC[C@@H](N)CSP(=O)(O)O,"activity change, negative = inhibition",[1],inactive: -2.04% [at 15.4 µM]
Cc1c2non([O-])c-2c(C)[n+](=O)[n+]1[O-],"activity change, negative = inhibition",[1],inactive: 0.651%
O=P1(Nc2nc3ccc(Cl)cc3s2)COc2ccccc2O1 (configuration not stated),"activity change, negative = inhibition",[1],inactive: -0.843%
COC(=O)c1cc2c(s1)N=C(c1ccccc1)N(C)P2(=O)N1CCOCC1 (configuration not stated),"activity change, negative = inhibition",[1],inactive: -0.936%
Cc1cc([N+](=O)[O-])cc([N+](=O)[O-])c1O,"activity change, negative = inhibition",[1],inactive: 0.171%
[N-]=[N+]=Nc1ccc([As](=O)(O)O)cc1,"activity change, negative = inhibition",[1],inactive: -1.32% [at 15.4 µM]
O=C(OC1CN2CCC1CC2)c1cccc(Cl)c1 (configuration not stated),"activity change, negative = inhibition",[1],inactive: -0.655%
c1nnnn1CCn1cnnn1,"activity change, negative = inhibition",[1],inactive: -1.26%
O=P(Nc1nccs1)(c1ccccc1)c1ccccc1,"activity change, negative = inhibition",[1],inactive: -2.58%
C[C@@H](O)COc1ccc([As](=O)(O)O)cc1N,"activity change, negative = inhibition",[1],inactive: 0.187% [at 15.4 µM]
CN1CCC[C@H](OC(=O)C(c2ccccc2)c2ccccc2)C1,"activity change, negative = inhibition",[1],inactive: -1.29% [at 15.4 µM]
Clc1n[nH]nc1-c1nn[nH][15n]1,"activity change, negative = inhibition",[1],inactive: -0.381%
O=P1(Nc2ccccn2)COc2ccccc2OC1,"activity change, negative = inhibition",[1],inactive: -0.379%
CN(CCCl)Cc1cc(Cl)c(NC2=NCCN2)c(Cl)c1,"activity change, negative = inhibition",[1],inactive: -2.38%
CN(C(=O)Cc1ccc(Cl)c(Cl)c1)[C@@H]1CCCC[C@H]1N1CCCC1,"activity change, negative = inhibition",[1],inactive: -0.886% [middle of 4 runs]
Cc1nn(-c2ccccc2)c2c1P(=O)(N1CCOCC1)N(C)C(c1ccccc1)=N2 (configuration not stated),"activity change, negative = inhibition",[1],inactive: -0.0997%
O=P1(Nc2ccc(Br)cn2)COc2ccccc2OC1,"activity change, negative = inhibition",[1],inactive: -2.1%
O=P1(Nc2ncccn2)COc2ccccc2OC1,"activity change, negative = inhibition",[1],inactive: -1.75%
O=[As](O)(O)c1ccc([As](=O)(O)O)cc1,"activity change, negative = inhibition",[1],inactive: 0.745% [at 15.4 µM]
O=P(Nc1nccs1)(c1ccccc1)c1nc2ccccc2s1 (configuration not stated),"activity change, negative = inhibition",[1],inactive: 0.03%
CCOP1(=S)c2c(C)nn(CCC#N)c2N=C(c2ccccc2F)N1C (configuration not stated),"activity change, negative = inhibition",[1],inactive: -1.68%
CCOP1(=S)c2c(C)nn(CCC#N)c2N=C(c2ccc(F)cc2)N1C (configuration not stated),"activity change, negative = inhibition",[1],inactive: 1.47%
NC(=O)Nc1ccc([As](=O)(O)O)cc1,"activity change, negative = inhibition",at 34.4 µM (top of the series),inactive: -0.972%
same,"activity change, negative = inhibition",at 76.9 µM (top of the series),inactive: -0.114%
CN(C(=O)Cc1ccc(Cl)c(Cl)c1)[C@@H]1CC[C@@]2(CCCO2)C[C@H]1N1CCCC1,"activity change, negative = inhibition",[1],inactive: -2.58%
NS(=O)(=O)Cc1ccc([As](=O)(O)O)cc1,"activity change, negative = inhibition",[1],inactive: -1.43% [at 15.4 µM]
O=C(CC(=O)c1ccccc1)O[C@H]1CN2CCC1CC2,"activity change, negative = inhibition",[1],inactive: 0.446% [at 15.4 µM]
NC(=O)Nc1cc([As](=O)(O)O)cc(I)c1O,"activity change, negative = inhibition",[1],inactive: -0.104% [at 15.4 µM]
O=C(OC1CN2CCC1CC2)C12CC3CC(CC(C3)C1)C2 (configuration not stated),"activity change, negative = inhibition",[1],inactive: -1.43%
O=[As]c1ccc(S(=O)(=O)NCCO)cc1 (configuration not stated),"activity change, negative = inhibition",[1],inactive: -2.48% [at 15.4 µM]
[N-]=[N+]=NCC(N)=O,"activity change, negative = inhibition",[1],inactive: 1.42% [at 15.4 µM]
CN(N=O)C(=N)N[N+](=O)[O-],"activity change, negative = inhibition",[1],inactive: -1.09%
O=C(COc1ccccc1)OC1CN2CCC1CC2 (configuration not stated),"activity change, negative = inhibition",[1],inactive: -0.908%
O=C(O)[C@@H](O)c1ccc([As](=O)(O)O)cc1,"activity change, negative = inhibition",[1],inactive: -1.37% [at 15.4 µM]
COP1(=S)c2c(C)nn(CCC#N)c2N=C(c2ccc(F)cc2)N1C (configuration not stated),"activity change, negative = inhibition",[1],inactive: -1.69%
